Measurements: ChEMBL document CHEMBL1125021, “4-[(Carboxymethyl)oxy]- and 4-[(carboxymethyl)amino]-5,7-dichloroquinoline-2-carboxylic acid: new antagonists of the strychnine-insensitive glycine binding site on the N-methyl-D-aspartate receptor complex” (J Med Chem, 1990)

Target: Glutamate NMDA receptor
Assay: Binding activity against N-methyl-D-aspartate glutamate receptor in rat brain homogenate using [3H]CPP as the radioligand.
Format: tissue-based

IC50: 71 µM
Compound: O=C(O)c1cc(=O)c2ccccc2[nH]1 [TRANSTORINE]
